Test results taken from publication PMC7821381, “Multi-Targeted Anticancer Activity of Imidazolate Phosphane Gold(I) Compounds by Inhibition of DHFR and TrxR in Breast Cancer Cells” (Frontiers in Chemistry, 2021).

Tested on: SKBR3 cells
Experiment: MTT cell viability assay on SKBR3 cells
Type: cell-based, human
Settings: 72 h (Figure 1S) and 48 h (Figure 2)
Source text: Human MDA-MB-231 (ER–/PR–/HER2–) and SK-BR-3 (ER–/PR–/HER2+) cells were obtained from American Type Culture Collection (Rockville, MD) and cultured in Dulbecco's Modified Essential Medium (DMEM, Gibco, Life Technologies) supplemented with 10% fetal bovine serum (FBS, Gibco, Life Technologies) and 1% penicillin–streptomycin (Gibco, Life Technologies). A17 cells were established from a spontaneous lobular carcinoma that arose in an FVB/neuT mouse (Galiè et al., [2005]), and maintained in DMEM plus 20% FBS and 1% penicillin-streptomycin. Cells were cultured at 37°C under humidified atmosphere with 5% CO2.
Stock solutions were prepared for each gold(I) compound (50 mM) using dimethyl sulfoxide (DMSO) (Sigma-Aldrich) as solvent. The effects of gold(I) compounds on SKBR3, A17 and MDA-MB231 cells viability were evaluated by seeding, respectively, 10, ^*10^3, 2.5 ^*10^3, 7, ^*10^3 cells/well in 96 wells plates in complete medium (DMEM supplemented with FBS) and compared to those of cisplatin. […] Cell viability was determined using a MTT [3-(4,5-dimethylthiazol-2-yl)-2,5-diphenyl-2H-tetrazolium bromide Sigma Aldrich, St. Louis, MO] assay, which is based on the conversion of MTT to formazan crystals by mitochondrial enzymes, after 24, 48, and 72 h. The formazan deposits were dissolved in DMSO and the absorbance of each well was measured at 540 nm in Multiskan Ascent 96/384 Plate Reader. […]

(4-hydroxy-methyl)imidazolyl-1H-gold(I)-(2-benzoic-diphenylphosphane acid) [Compound 3]
cytotoxic activity in MTT screening: did not show relevant cytotoxic activity
